System: ESKAPE pathogens and Escherichia coli
Details: initial MDR panel of GNB and GPB (ESKAPE pathogens and E. coli); MHB2
Description: Bacteria were incubated with each of the indicated peptides in MHB2. […] To assess bactericidal properties of the peptide, the assay was modified by using 15% fetal bovine serum (FBS, for a more physiologically relevant test condition) mixed with 25% MHB2 and 60% PBS. […] Data were analyzed using GraphPad Prism software.

CC[C@H](C)[C@H](N)C(=O)N[C@@H](CC(C)C)C(=O)N1CCC[C@H]1C(=O)N[C@@H](Cc1c[nH]c2ccccc12)C(=O)N[C@@H](CCCCN)C(=O)N[C@@H](Cc1c[nH]c2ccccc12)C(=O)N1CCC[C@H]1C(=O)N[C@@H](Cc1c[nH]c2ccccc12)C(=O)N[C@@H](Cc1c[nH]c2ccccc12)C(=O)N1CCC[C@H]1C(=O)N[C@@H](Cc1c[nH]c2ccccc12)C(=O)N[C@@H](CCCNC(=N)N)C(=O)N[C@@H](CCCNC(=N)N)C(N)=O [indolicidin]
mean MIC: > 10 µM
